Source: patent publication US6987093B2 (priority 2001, dated 2006)

Test system: S. pneumoniae
Experiment: Single dose azithromycin pediatric AOM trial, subjects with S. pneumoniae at baseline
Format: in vivo, human
Conditions: corrected by ascribing one failure to the >256 μg/ml category
Excerpt: Children six months to twelve years were enrolled if they had symptoms and signs of acute otitis media (“AOM”) for less than four weeks and middle ear effusion by acoustic reflectometry. Symptoms necessary for enrollment included ear pain or fullness, discharge from the external auditory canal, decreased hearing or fever. On physical examination they must have had one or more of the following: bulging or marked erythema of the tympanic membrane, loss of the normal light reflex or tympanic membrane landmarks, or impaired tympanic mobility on biphasic pneumatic otoscopy. The effusion was to be documented by acoustic reflectometry with an abnormal reading of 3 or higher. […]
A phone contact occurred on study day 5 to assess for adverse events followed by visits on days 10 and 24–28, at which time detailed clinical assessments were made and adverse events were recorded. […]
The primary endpoint of the trial was the investigator designated cure rate at Day 24–28 for which a 95% confidence interval was computed using the normal approximation to the binomial distribution. Other endpoints analyzed included the clinical response rate by baseline pathogen at Day 24–28, the overall clinical response at Day 10, the percentage of subjects with individual signs and symptoms, as well as findings from pneumatic otoscopy and acoustic reflectometry. […]

## CC[C@H]1OC(=O)[C@H](C)[C@@H](O[C@H]2C[C@@](C)(OC)[C@@H](O)[C@H](C)O2)[C@H](C)[C@@H](O[C@@H]2O[C@H](C)C[C@H](N(C)C)[C@H]2O)[C@](C)(O)C[C@@H](C)CN(C)[C@H](C)[C@@H](O)[C@]1(C)O [Azithromycin, 9a-aza-9a-methyl-9-deoxo-9a-homoerythromycin A]
  cure rate, strains with a ribosome methylation mechanism of resistance: 2/6
  cure rate, strains with an efflux mechanism of resistance (mef(A)): 7/7 and seven of the seven
